These results are taken from US10408813B2, “Biosensor for detecting intracellular cyclic adenosine monophosphate (cAMP) and uses thereof” (Academia Sinica, priority 2015, dated 2019).

Sequences of proteins named here, by UniProt entry; tags and fusion partners are left off. Residues count along the entry.
UniProt P32301, 22-463: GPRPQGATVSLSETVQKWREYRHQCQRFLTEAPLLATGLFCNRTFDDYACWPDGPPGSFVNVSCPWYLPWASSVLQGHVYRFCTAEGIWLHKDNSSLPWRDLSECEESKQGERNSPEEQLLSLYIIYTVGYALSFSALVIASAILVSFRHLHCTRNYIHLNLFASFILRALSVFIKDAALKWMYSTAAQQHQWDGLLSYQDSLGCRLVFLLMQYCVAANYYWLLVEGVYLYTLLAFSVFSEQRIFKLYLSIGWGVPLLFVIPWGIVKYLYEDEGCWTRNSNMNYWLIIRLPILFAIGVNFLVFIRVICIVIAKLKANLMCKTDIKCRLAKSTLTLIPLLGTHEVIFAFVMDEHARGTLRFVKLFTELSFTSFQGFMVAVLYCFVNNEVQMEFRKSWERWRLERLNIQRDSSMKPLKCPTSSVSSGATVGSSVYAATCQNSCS

The target in this test is GLP-1R (UniProt P01275+P32301). Nature of the test: BRET cAMP response assay in RINm5F cells, GLP-1R-mediated cAMP production. It is filed as cell-based, rat.

As to “His-tagged GLP-1 (7-36): SEQ ID NO: 6, six consecutive histidine residues tagged to the C-terminal of GLP-1 (7-36) peptide (HAEGTFTSDVSSYLEGQAAKEFIAWLVKGRHHHHHH; His-tagged GLP-1 (7-36)) [reference compound]”, the “response to OEA and stimulation of cAMP response compared with GLP-1 (7-36) amide” value is recorded as “comparable response”.
